# Tests used:
# [1] = two 15 W tubes emitting 365 nm light, no photosensitizer; cited from earlier work
# [2] = Effect of UVA irradiation on the absorbance spectrum of DOX (350-600 nm; KDOX at 480 nm); type: physicochemical; conditions: 5 mM DABCO, 20 μM DOX
# [3] = Half-life of ADR destruction by UVA light in the presence of test compounds (decrease in absorbance at 480 nm); type: physicochemical; conditions: UVA light; for Half-Life of ADR Destruction, 100 μM Test Compound and 0.5 μM Riboflavin: 100 μM test compound with 0.5 μM riboflavin
molecule,measurement,setting,value
daunomycin,half-time for inactivation,[1],9 h
Doxorubicin HCl,half-time for inactivation,[1],9 h
C1CN2CCN1CC2,effect on destruction of DOX by FAD and UVA,[2]; 20 μM FAD in PBS lacking Ca2+ and Mg2+,considerably enhanced the effect of FAD-UVA on DOX
same,effect on destruction of DOX by riboflavin and UVA,[2]; 2 or 20 μM riboflavin in PBS,further accelerates the destruction of DOX
c1ccc2c(c1)[nH]c1ccccc12,"Half-Life of ADR Destruction, 100 μM Test Compound","[3]; test compound alone, +4% DMSO",27.4 min
COc1cc(/C=C/CO)cc(OC)c1O[C@@H]1O[C@H](CO)[C@@H](O)[C@H](O)[C@H]1O,"Half-Life of ADR Destruction, 100 μM Test Compound",[3]; 100 μM test compound alone,50.2 min
same,"Half-Life of ADR Destruction, 100 μM Test Compound and 0.5 μM Riboflavin",[3],37.6 min
O=C(c1ccccc1)c1cccnc1,"Half-Life of ADR Destruction, 100 μM Test Compound",[3]; 100 μM test compound alone,13.7 min
same,"Half-Life of ADR Destruction, 100 μM Test Compound and 0.5 μM Riboflavin",[3],12.0 min
c1ccc2[nH]ncc2c1,"Half-Life of ADR Destruction, 100 μM Test Compound and 0.5 μM Riboflavin",[3],33.5 min
